These results are taken from patent publication US11618753B2 (priority 2018, dated 2023).

Protein sequences, listed by entry. Tags and fused reporters are not part of them. Lines headed by an entry give the natural chain unless they say otherwise; changes in a name come on top. Residues count along the entry.
UniProt O00329: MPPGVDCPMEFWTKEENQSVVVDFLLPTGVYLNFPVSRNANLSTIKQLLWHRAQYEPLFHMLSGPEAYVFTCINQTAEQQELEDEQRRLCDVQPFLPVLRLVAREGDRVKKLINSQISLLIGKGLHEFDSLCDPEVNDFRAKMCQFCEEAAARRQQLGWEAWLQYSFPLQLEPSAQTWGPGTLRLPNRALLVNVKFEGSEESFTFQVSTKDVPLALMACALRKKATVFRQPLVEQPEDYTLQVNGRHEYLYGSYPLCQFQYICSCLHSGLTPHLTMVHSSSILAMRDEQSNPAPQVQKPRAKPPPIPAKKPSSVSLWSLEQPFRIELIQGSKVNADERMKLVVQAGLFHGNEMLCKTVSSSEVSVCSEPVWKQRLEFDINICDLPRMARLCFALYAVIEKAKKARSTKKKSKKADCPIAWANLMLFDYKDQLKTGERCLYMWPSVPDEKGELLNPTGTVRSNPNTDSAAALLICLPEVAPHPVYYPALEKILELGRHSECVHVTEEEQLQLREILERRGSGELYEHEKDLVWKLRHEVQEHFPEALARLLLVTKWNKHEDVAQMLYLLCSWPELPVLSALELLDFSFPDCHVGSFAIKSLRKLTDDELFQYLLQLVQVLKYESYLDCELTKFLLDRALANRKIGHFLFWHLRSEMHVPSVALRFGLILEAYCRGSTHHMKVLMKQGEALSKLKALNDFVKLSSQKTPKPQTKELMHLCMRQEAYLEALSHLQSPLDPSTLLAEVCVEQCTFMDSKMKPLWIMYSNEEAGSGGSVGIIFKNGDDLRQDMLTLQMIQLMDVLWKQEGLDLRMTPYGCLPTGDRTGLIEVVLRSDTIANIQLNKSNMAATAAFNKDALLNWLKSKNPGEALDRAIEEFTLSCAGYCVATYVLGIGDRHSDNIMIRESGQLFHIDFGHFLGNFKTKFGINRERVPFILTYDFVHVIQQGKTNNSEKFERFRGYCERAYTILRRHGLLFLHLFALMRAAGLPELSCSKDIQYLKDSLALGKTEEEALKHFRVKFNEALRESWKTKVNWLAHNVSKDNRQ
UniProt Q13546, 1-324: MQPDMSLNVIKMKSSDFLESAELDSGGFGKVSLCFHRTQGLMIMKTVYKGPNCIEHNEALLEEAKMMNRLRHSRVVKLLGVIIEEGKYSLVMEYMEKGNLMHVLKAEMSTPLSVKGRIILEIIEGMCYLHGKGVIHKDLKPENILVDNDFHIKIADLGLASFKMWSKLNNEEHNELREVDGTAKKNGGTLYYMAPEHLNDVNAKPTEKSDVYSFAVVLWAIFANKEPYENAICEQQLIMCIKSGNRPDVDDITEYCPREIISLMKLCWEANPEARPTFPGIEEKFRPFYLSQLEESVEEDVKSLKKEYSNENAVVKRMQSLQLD

In test [1] the target is T1, GST-tagged PIK3Cδ in complex with PIK3R1 (Homo sapiens (Human), UniProt O00329). The test is described as follows: biochemical.
Test [2] has as its target His-GST-TVMV-hRIPK1(1-324) (Homo sapiens (Human), UniProt Q13546). The test is described as follows: biochemical. The note with it: HTRF Binding Assay (IC50, uM). On the technique in general: In TR-FRET formats the signal depends on donor and acceptor labels being close together.
The next test concerns Female C57/B16 mice. The note with it: mouse, in vivo.
In test [3] the target is T1, GST-tagged PIK3Cδ in complex with PIK3R1.

Where two headings read alike, the source gives them in different places. A value given as a limit tells only on which side of the number the result lay.

The IC50 is the concentration that gives 50% inhibition. As for `COc1ncc(-c2cc(C#N)c3c(N)ncnn23)cc1C(=O)Nc1cnn(Cc2ccccc2)c1` [Example 9, 5-{4-amino-5-cyanopyrrolo[2,1-f][1,2,4]triazin-7-yl}-N-(1-benzyl-1H-pyrazol-4-yl)-2-methoxypyridine-3-carboxamide], the figures for the IC50 in test [1] and in test [2] were above 1.5 µM and 0.0021 µM, respectively.
The compound `COc1ncc(-c2cc(C(F)(F)F)c3c(N)ncnn23)cc1C(=O)NCC[C@H](O)c1ccc(Cl)cc1` [Example 10, 5-[4-amino-5-(trifluoromethyl)pyrrolo[2,1-f][1,2,4]triazin-7-yl]-N-[(3S)-3-(4-chlorophenyl)-3-hydroxypropyl]-2-methoxypyridine-3-carboxamide] returned an IC50 in test [1] above 1.5 µM. In addition, in the test on Female C57/B16 mice, the “% protection from body temperature decrease” value was found to be 70%, the “% reduction in IL6 serum cytokines” value was 78% and the “% reduction in KC serum cytokines” value turned out to be 88%.
For the compound `COc1ncc(-c2cc(C(F)(F)F)c3c(N)ncnn23)cc1C(=O)N[C@@H]1CN(C(=O)C2CC(F)(F)C2)C[C@@H]1F` [Example 31-1, 5-[4-amino-5-(trifluoromethyl)pyrrolo[2,1-f][1,2,4]triazin-7-yl]-N-[1-(3,3-difluorocyclobutanecarbonyl)-(3R,4S)-4-fluoropyrrolidin-3-yl]-2-methoxypyridine-3-carboxamide], in test [1], 0.335 µM corresponded to half-maximal inhibition (IC50). In the test with Female C57/B16 mice, the “% protection from body temperature decrease” value came out at 77%, the “% reduction in IL6 serum cytokines” value worked out at 77% and the “% reduction in KC serum cytokines” value was 89%.
In test [2], `COc1ncc(-c2ccc3c(N)ncnn23)cc1C(=O)N[C@@H]1CN(C(=O)C2CC(F)C2)C[C@@H]1F` (stereo partly drawn) [Example 157, 5-{4-aminopyrrolo[2,1-f][1,2,4]triazin-7-yl}-N-[(3R,4S)-4-fluoro-1-(3-fluorocyclobutanecarbonyl)pyrrolidin-3-yl]-2-methoxypyridine-3-carboxamide] displayed an IC50 of 0.039 µM.
In test [2], `Cc1ncc(-c2cc(C(F)(F)F)c3c(N)ncnn23)cc1C(=O)N1CCC[C@@H](Cc2ccc(F)cc2)C1` [Example 172, 7-{5-[(3S)-3-[(4-fluorophenyl)methyl]piperidine-1-carbonyl]-6-methylpyridin-3-yl}-5-(trifluoromethyl)pyrrolo[2,1-f][1,2,4]triazin-4-amine] had a concentration for half-maximal inhibition (IC50) of 0.021 µM.
Still for that read-out and setting: next, `Cc1ncc(-c2cc(C(F)(F)F)c3c(N)ncnn23)cc1C(=O)N1CCC[C@H](Cc2ccc(F)cc2)C1` [Example 174, 7-{5-[(3R)-3-[(4-fluorophenyl)methyl]piperidine-1-carbonyl]-6-methylpyridin-3-yl}-5-(trifluoromethyl)pyrrolo[2,1-f][1,2,4]triazin-4-amine]: 0.018 µM.
On the same count and under the same terms, the result for `Cc1ncc(-c2cc(C(F)(F)F)c3c(N)ncnn23)cc1C(=O)N[C@@H]1CN(C(=O)C2CCCC2)C[C@@H]1C` [Example 175, 5-[4-amino-5-(trifluoromethyl)pyrrolo[2,1-f][1,2,4]triazin-7-yl]-N-[(3S,4S)-1-cyclopentanecarbonyl-4-methylpyrrolidin-3-yl]-2-methylpyridine-3-carboxamide] reads 0.095 µM; that for `Nc1ncnn2c(-c3ccc(F)c(C(=O)N4CCOC(Cc5ccccc5)C4)c3)cc(C(F)(F)F)c12` (stereo not shown) [Example 260, 7-[3-(2-benzylmorpholine-4-carbonyl)-4-fluorophenyl]-5-(trifluoromethyl)pyrrolo[2,1-f][1,2,4]triazin-4-amine], 0.024 µM.
`COc1ncc(-c2cc(C(F)(F)F)c3c(N)ncnn23)cc1C(=O)N[C@@H]1CN(C(=O)[C@@](C)(O)C(F)(F)F)C[C@@H]1F` [Example 311, 5-[4-amino-5-(trifluoromethyl)pyrrolo[2,1-f][1,2,4]triazin-7-yl]-N-[(3R,4S)-4-fluoro-1-[(2R)-3,3,3-trifluoro-2-hydroxy-2-methyl-propanoyl]pyrrolidin-3-yl]-2-methoxypyridine-3-carboxamide] had an IC50 in test [1] of 0.608 µM. Moreover, in the test with Female C57/B16 mice, the “% protection from body temperature decrease” value is on record as 81%, the “% reduction in IL6 serum cytokines” value is recorded as 88% and the “% reduction in KC serum cytokines” value was found to be 79%.
In test [2], `COc1ncc(-c2c(-c3nnnn3C)cc3c(N)ncnn23)cc1C(=O)N[C@@H]1CN(C(=O)[C@@](C)(O)C(F)(F)F)C[C@@H]1F` [Example 544, 5-(4-amino-6-(1-methyl-1H-tetrazol-5-yl)pyrrolo[2,1-f][1,2,4]triazin-7-yl)-N-((3R,4S)-4-fluoro-1-((R)-3,3,3-trifluoro-2-hydroxy-2-methylpropanoyl)pyrrolidin-3-yl)-2-methoxynicotinamide] yielded an IC50 of 0.124 µM.
In test [2], `C[C@@](O)(C(=O)N1C[C@H](F)[C@H](NC(=O)c2cc(-c3cc(C(F)(F)F)c4c(N)ncnn34)ccc2C(F)(F)F)C1)C(F)(F)F` [Example 904, 5-[4-amino-5-(trifluoromethyl)pyrrolo[2,1-f][1,2,4]triazin-7-yl]-N-[(3R,4S)-4-fluoro-1-[(28)-3,3,3-trifluoro-2-hydroxy-2-methylpropanoyl]pyrrolidin-3-yl]-2-(trifluoromethyl)benzamide] came in with an IC50 of 0.02 µM.
Same read-out and setting: the result for `CC(C)(F)C(=O)N1C[C@H](F)[C@H](NC(=O)c2cc(-c3cc(C(F)(F)F)c4c(N)ncnn34)ccc2OCC(F)(F)F)C1` [Example 1063, 5-[4-amino-5-(trifluoromethyl)pyrrolo[2,1-f][1,2,4]triazin-7-yl]-N-[(3R,4S)-4-fluoro-1-(2-fluoro-2-methylpropanoyl)pyrrolidin-3-trifluoroethoxy)benzamide] reads 0.049 µM.
In test [2], `CC(C(=O)N1C[C@H](F)[C@H](NC(=O)c2cc(-c3cc(C(F)(F)F)c4c(N)ncnn34)ccc2OCC(F)(F)F)C1)C(F)(F)F` (stereo partly drawn) [Example 1077, 5-[4-amino-5-(trifluoromethyl)pyrrolo[2,1-f][1,2,4]triazin-7-yl]-N-[(3R,4S)-4-fluoro-1-(3,3,3-trifluoro-2-methylpropanoyl)pyrrolidin-3-trifluoroethoxy)benzamide] gave an IC50 of 0.042 µM.
In the case of `COc1ncc(-c2cc(C(F)(F)F)c3c(N)ncnn23)cc1C(=O)N[C@@H]1CN(C(=O)CC(C)(O)C(F)(F)F)C[C@@H]1F` (stereo partly drawn) [Example 1224, 5-[4-amino-5-(trifluoromethyl)pyrrolo[2,1-f][1,2,4]triazin-7-yl]-N-[(3R,4S)-4-fluoro-1-(4,4,4-trifluoro-3-hydroxy-3-methylbutanoyl)pyrrolidin-3-yl]-2-methoxypyridine-3-carboxamide], in the test with Female C57/B16 mice, the “% protection from body temperature decrease” value is recorded as 72%, the “% reduction in IL6 serum cytokines” value stood at 88% and the “% reduction in KC serum cytokines” value is on record as 65%.
In turn, `COc1ncc(-c2cc(C(F)(F)F)c3c(N)ncnn23)cc1C(=O)NCc1ccccc1Oc1ccccc1` [Example 1352, 5-[4-amino-5-(trifluoromethyl)pyrrolo[2,1-f][1,2,4]triazin-7-yl]-2-methoxy-N-[(2-phenoxyphenyl)methyl]pyridine-3-carboxamide] had an IC50 in test [2] of 0.014 µM.
For `COc1ncc(-c2cc(C(F)(F)F)c3c(N)ncnn23)cc1C(=O)N[C@@H]1CN(S(=O)(=O)Cc2ccccc2[N+](=O)[O-])C[C@@H]1F` [Example 1487, 5-[4-amino-5-(trifluoromethyl)pyrrolo[2,1-f][1,2,4]triazin-7-yl]-N-[(3R,4S)-4-fluoro-1-[(2-nitrophenyl)methanesulfonyl]pyrrolidin-3-yl]-2-methoxypyridine-3-carboxamide], the IC50 in test [2] was 0.0038 µM.
Consider `COc1ncc(-c2cc(CN3CCC(F)(F)CC3)c3c(N)ncnn23)cc1C(=O)NC1CN(S(=O)(=O)C(C)C(F)(F)F)C[C@@H]1F` (stereo partly drawn) [Example 1544, 5-{4-amino-5-[(4,4-difluoropiperidin-1-yl)methyl]pyrrolo[2,1-f][1,2,4]triazin-7-yl}-N-[(3R,4S)-4-fluoro-1-(1,1,1-trifluoropropane-2-sulfonyl)pyrrolidin-3-yl]-2-methoxypyridine-3-carboxamide], for which the “RIPK1 Selectivity (x fold) >100 x” value in test [3] is given as “x (key: >100 x)”. In addition, the IC50 in test [3] (read-out: PIK3Cδ IC50) was above 15 µM.
Regarding `COc1ncc(-c2cc(F)c3c(N)ncnn23)cc1C(=O)N[C@@H]1CN(C(=O)[C@@](C)(O)C(F)(F)F)C[C@@H]1F` [Example 1605, 5-{4-amino-5-fluoropyrrolo[2,1-f][1,2,4]triazin-7-yl}-N-[(3R,4S)-4-fluoro-1-[(2R)-3,3,3-trifluoro-2-hydroxy-2-methylpropanoyl]pyrrolidin-3-yl]-2-methoxypyridine-3-carboxamide], in the test on Female C57/B16 mice, the “% protection from body temperature decrease” value is on record as 46%, the “% reduction in IL6 serum cytokines” value turned out to be 43% and the “% reduction in KC serum cytokines” value is 52%.
In turn, `Cc1ccc(-c2cc(C(F)(F)F)c3c(N)ncnn23)cc1C(=O)Nc1ccn(Cc2ccc(F)cc2)n1` [Example 1811, 5-(4-amino-5-(trifluoromethyl)pyrrolo[2,1-f][1,2,4]triazin-7-yl)-N-(1-(4-fluorobenzyl)-1H-pyrazol-3-yl)-2-methylbenzamide] showed an IC50 in test [1] of 0.148 µM.
`Cc1ncc(-c2cc(C(F)(F)F)c3c(N)ncnn23)cc1C(=O)Nc1cc(C)n(Cc2ccc(F)cc2)n1` [Example 1812, 5-(4-amino-5-(trifluoromethyl)pyrrolo[2,1-f][1,2,4]triazin-7-yl)-N-(1-(4-fluorobenzyl)-5-methyl-1H-pyrazol-3-yl)-2-methylnicotinamide] had a 50% inhibitory concentration (IC50) in test [1] of 0.261 µM.
In test [1], `Cc1ncc(-c2cc(C(F)(F)F)c3c(N)ncnn23)cc1C(=O)Nc1cn(C(c2ccc(F)cc2)C(F)(F)F)cn1` (stereo not shown) [Example 1819, 5-(4-amino-5-(trifluoromethyl)pyrrolo[2,1-f][1,2,4]triazin-7-yl)-2-methyl-N-(1-(2,2,2-trifluoro-1-(4-fluorophenyl)ethyl)-1H-imidazol-4-yl)nicotinamide] returned an IC50 of 1.41 µM.
On the same count and under the same terms, next, `[2H]C([2H])([2H])Oc1ncc(-c2ccc3c(N)ncnn23)cc1C(=O)N[C@@H]1CN(C(=O)[C@@](C)(O)C(F)(F)F)C[C@@H]1F` [Example 1836, 5-(4-aminopyrrolo[2,1-f][1,2,4]triazin-7-yl)-N-((3R,4S)-4-fluoro-1-((R)-3,3,3-trifluoro-2-hydroxy-2-methylpropanoyl)pyrrolidin-3-yl)-2-(methoxy-d3)nicotinamide]: above 15 µM.
